Data from PubChem BioAssay AID932 (The Scripps Research Institute Molecular Screening Center, 2007).
The list shows a part of the results, in another mix than the full data. The source made the active and inactive calls.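 How the source made its calls: active means activation above the screen-wide mean activation plus 3 SD (cut at about 130% in these data); inactive means the rest.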

Experiment: potentiators of IFN-gamma driven STAT1 reporter – cell-based, HTS, luciferase reporter, primary screen (AID 932);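 further: raw ratio to IFN-gamma control signal so 100% means no change and 0% no light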
Details: NIH 3T3 STAT1-luciferase reporter, luminescence, at 5.5 µM, stronger effect = higher value, 100% = IFN-gamma alone, no compound

Row | SMILES | activation (% of control)
1 | O=[N+]([O-])c1ccc2c(c1)nnn2O | inactive: 94.1%
2 | CCOP1(=S)c2c(C)nn(CCC#N)c2N=C(c2ccc(F)cc2)N1C (centres undefined) | inactive: 95%
3 | CCOP1(=S)c2c(C)nn(CCC#N)c2N=C(c2ccccc2F)N1C (centres undefined) | inactive: 103%
4 | O=P(Nc1nccs1)(c1ccccc1)c1nc2ccccc2s1 (centres undefined) | inactive: 95.2%
5 | O=P(Nc1nccs1)(Oc1ccccc1)Oc1ccccc1 | inactive: 93.1%
6 | COc1cc(C2NCCC3(OCCO3)C2(C)C)cc(OC)c1OC (centres undefined) | inactive: 94.9%
7 | CCOP(=O)(Nc1cccc2ccccc12)OCC | inactive: 95.8%
8 | Cc1ccc(NCCc2c([N+](=O)[O-])cc([N+](=O)[O-])cc2[N+](=O)[O-])cc1 | inactive: 91.3%
9 | Cc1cccc(OCC(=O)OC2CN3CCC2CC3)c1 (centres undefined) | inactive: 98.5%
10 | COc1cc(C(=O)NCC2(N3CCOCC3)CCCCC2)cc(Cl)c1OC(C)C | inactive: 99.1%
11 | CC1(CBr)Cn2c(nc3ccccc3c2=O)S1 (centres undefined) | inactive: 99.1%
12 | CC(C)/C=N\N=C(\N)N[N+](=O)[O-] | inactive: 101%
13 | Clc1n[nH]nc1-c1nn[nH][15n]1 | inactive: 102%
14 | O=P1(Nc2ccccn2)COc2ccccc2OC1 | inactive: 101%
15 | O=P1(Nc2ccc(Br)cn2)COc2ccccc2OC1 | inactive: 96.5%
16 | Cc1ccc(OCC(=O)OC2CN3CCC2CC3)cc1 (centres undefined) | inactive: 93%
17 | O=P1(Nc2ncccn2)COc2ccccc2OC1 | inactive: 104%
18 | CN(C)C1(CNC(=O)c2ccc(S(C)(=O)=O)cc2)CCCCC1 | inactive: 104%
19 | Cc1nn(-c2ccccc2)c2c1P(=O)(N1CCOCC1)N(C)C(c1ccccc1)=N2 (centres undefined) | inactive: 95.8%
20 | CC1CCC(C(C)C)C(OP(=O)(Nc2ccccn2)c2ccccc2)C1 (centres undefined) | inactive: 102%
21 | Cc1cc(SC(NC=O)C(Cl)(Cl)Cl)ncn1 (centres undefined) | inactive: 95.5%
22 | O=P(Nc1ccccn1)(c1cccc2ccccc12)c1cccc2ccccc12 | inactive: 105%
23 | Cc1cc(SC(NC(=O)c2ccccc2)C(Cl)(Cl)Cl)nc(C(C)C)n1 (centres undefined) | inactive: 100%
24 | CCC(C)N(CC(C)C)C(=S)SC(NC(C)=O)C(Cl)(Cl)Cl (centres undefined) | inactive: 104%
25 | O=C(COc1ccccc1)OC1CN2CCC1CC2 (centres undefined) | inactive: 93.6%
26 | COP1(=S)c2c(C)nn(CCC#N)c2N=C(c2ccc(F)cc2)N1C (centres undefined) | inactive: 99.9%
27 | COc1ccc(N/C(=N/P(=O)(N2CCOCC2)N2CCOCC2)N2CCOCC2)cc1 | inactive: 103%

Row | SMILES | activation (% of control)
28 | COc1ccc2nc(NP(=O)(c3ccccc3)c3ccccc3)sc2c1 | inactive: 96.4%
29 | O=C(OC1CN2CCC1CC2)C12CC3CC(CC(C3)C1)C2 (centres undefined) | inactive: 94.7%
30 | Cc1cc(=O)[nH]c(N[N+](=O)[O-])n1 | inactive: 99.2%
31 | Cc1c2c(nc3ccccc13)SC(C(Cl)Cl)C2 (centres undefined) | inactive: 109%
32 | CCN(CC)C(=S)SC(NC=O)C(Cl)(Cl)Cl (centres undefined) | inactive: 94.6%
33 | CC(C)NC(=O)NP(=O)(Oc1ccccc1)Oc1ccccc1 | inactive: 105%
34 | O=[N+]([O-])c1cc([N+](=O)[O-])c(-c2ccn[nH]2)s1 | inactive: 88.7%
35 | ClCCSc1nnc(-c2cccnc2)o1 | inactive: 105%
36 | Cc1ccc2nc3c(c(C)c2c1)CC(C(Cl)Cl)S3 (centres undefined) | inactive: 122%
37 | CCN(N=Nc1nonc1N)c1nonc1N | inactive: 93.4%
38 | CCOP(=O)(Nc1ccccc1)OCC | inactive: 102%
39 | Cc1cc(SC(NC(=O)c2ccc(F)cc2)C(Cl)(Cl)Cl)ncn1 (centres undefined) | inactive: 96.8%
40 | CC(C)CC(=O)NC(Sc1ccc(Cl)cc1)C(Cl)(Cl)Cl (centres undefined) | inactive: 109%
41 | Oc1ccccc1CNc1ccccn1 | inactive: 103%
42 | Cc1c2non([O-])c-2c(C)[n+](=O)[n+]1[O-] | inactive: 90.6%
43 | O=C(NC(Sc1ccncn1)C(Cl)(Cl)Cl)c1ccccc1 (centres undefined) | inactive: 102%
44 | COc1ccccc1OP(=O)(Nc1ccc(C)cn1)Oc1ccccc1OC | inactive: 98.5%
45 | Clc1ccc(Cl)c(NC2=NCC(CBr)S2)c1 (centres undefined) | inactive: 103%
46 | CN1CCCC(OC(=O)C(c2ccccc2)c2ccccc2)C1 (centres undefined) | inactive: 107%
47 | NC(=O)c1cc([N+](=O)[O-])cc([N+](=O)[O-])c1N | inactive: 98%
48 | Cc1ccc(N/C(=N/P(=O)(N2CCOCC2)N2CCOCC2)N2CCOCC2)cc1 | inactive: 103%
49 | CC(C)=N/N=C(\N)N[N+](=O)[O-] | inactive: 93.9%
50 | CN(C)C(=O)OCCc1n(C)cc[n+]1C | inactive: 99.3%
51 | CC1CCN(C(=O)Oc2c(Cl)cc(Cl)c3cccnc23)CC1 | inactive: 85.4%
52 | CCN(/C(=N/P(=O)(N1CCOCC1)N1CCOCC1)N1CCOCC1)c1ccc(OC)cc1 | inactive: 97.5%
53 | CC(=O)N1C2C3N(C(C)=O)C1C1N(C(C)=O)C(C(N1C(C)=O)N3C(C)=O)N2C(C)=O | inactive: 93.4%
54 | O=[N+]([O-])c1cccc2n[nH]nc12 | inactive: 98.3%

Row | SMILES | activation (% of control)
55 | Cc1ccc(NP(=O)(Oc2ccccc2)Oc2ccccc2)nc1 | inactive: 104%
56 | O=[N+]([O-])c1cc([N+](=O)[O-])c(CCNc2ccccc2)c([N+](=O)[O-])c1 | inactive: 88.5%
57 | CCc1nc2c(n1)c1c(non1O)c1c2no[n+]1[O-] | inactive: 93.6%
58 | COc1ccc(C2=NCC(CBr)S2)cc1 (centres undefined) | inactive: 106%
59 | O=[N+]([O-])c1ncn(CCn2ncnc2[N+](=O)[O-])n1 | inactive: 92.8%
60 | C(Cc1nn[nH]n1)Cc1nn[nH]n1 | inactive: 104%
61 | O=C(OC1CN2CCC1CC2)c1cccc(Cl)c1 (centres undefined) | inactive: 108%
62 | CC(=O)NC(SC(=S)N(C)C)C(Cl)(Cl)Cl (centres undefined) | inactive: 105%
63 | O=P(Nc1ccccn1)(c1ccc(Br)cc1)c1ccc(Br)cc1 | inactive: 90.1%
64 | c1nnnn1CCn1cnnn1 | inactive: 99.1%
65 | O=P(Nc1nccs1)(c1ccccc1)c1ccccc1 | inactive: 102%
66 | CC(C)C(=O)NC(Sc1ccccc1)C(Cl)(Cl)Cl (centres undefined) | inactive: 103%
67 | CC(=O)Nc1ccc(Oc2c([N+](=O)[O-])cc([N+](=O)[O-])cc2[N+](=O)[O-])cc1 | inactive: 94.8%
68 | CC(C)(C)C(=O)NC(Sc1ccccc1)C(Cl)(Cl)Cl (centres undefined) | inactive: 92.1%
69 | O=P1(Nc2nc3ccc(Cl)cc3s2)COc2ccccc2O1 (centres undefined) | inactive: 106%
70 | CCOc1ccc(C2=NCC(CBr)S2)cc1 (centres undefined) | inactive: 101%
71 | O=c1c2cc([N+](=O)[O-])ccc2[nH]c2c([N+](=O)[O-])cc([N+](=O)[O-])cc12 | inactive: 82.6%
72 | COC(=O)c1cc2c(s1)N=C(c1ccccc1)N(C)P2(=O)N1CCOCC1 (centres undefined) | inactive: 96.6%
73 | CC(=O)NC(SC(=S)N(CC(C)C)CC(C)C)C(Cl)(Cl)Cl (centres undefined) | inactive: 99.3%
74 | Cc1ccc(OP(=O)(Nc2ccccn2)Oc2ccc(C)cc2)cc1 | inactive: 102%
75 | CCC(=O)N1C2C3N(C(=O)CC)C1C1N(C(=O)CC)C(C(N1C(=O)CC)N3C(=O)CC)N2C(=O)CC | inactive: 100%
76 | O=C(NC1CCS(=O)(=O)C1)NP(=S)(Oc1ccccc1)Oc1ccccc1 (centres undefined) | inactive: 101%
77 | CCNC(=S)/N=C(\N)N[N+](=O)[O-] | inactive: 98.3%
78 | c1ccc(-c2nn[nH]n2)c(-c2nn[nH]n2)c1 | inactive: 100%
79 | CCOC(=O)NC(Sc1ccccc1)C(Cl)(Cl)Cl (centres undefined) | inactive: 87.2%
